Source: US7868037B2 (PTC Therapeutics, Inc., priority 2004, dated 2011)

System: HCV IRES-driven translation
Format: cell-based, human

## COc1ccc(C[C@H](N)C(=O)N[C@H]2[C@@H](O)[C@H](n3cnc4c(N(C)C)ncnc43)O[C@@H]2CO)cc1 [puromycin]
  luciferase reporter protein level (HCV IRES-driven) in Western blot: inhibited
